Source: ChEMBL document CHEMBL3826971 (Bioorg Med Chem Lett, 2016)

By UniProt entry, the sequences of proteins in these tests, tags left out. Residues count along the entry.
UniProt P22303, 32-614 limits assumed: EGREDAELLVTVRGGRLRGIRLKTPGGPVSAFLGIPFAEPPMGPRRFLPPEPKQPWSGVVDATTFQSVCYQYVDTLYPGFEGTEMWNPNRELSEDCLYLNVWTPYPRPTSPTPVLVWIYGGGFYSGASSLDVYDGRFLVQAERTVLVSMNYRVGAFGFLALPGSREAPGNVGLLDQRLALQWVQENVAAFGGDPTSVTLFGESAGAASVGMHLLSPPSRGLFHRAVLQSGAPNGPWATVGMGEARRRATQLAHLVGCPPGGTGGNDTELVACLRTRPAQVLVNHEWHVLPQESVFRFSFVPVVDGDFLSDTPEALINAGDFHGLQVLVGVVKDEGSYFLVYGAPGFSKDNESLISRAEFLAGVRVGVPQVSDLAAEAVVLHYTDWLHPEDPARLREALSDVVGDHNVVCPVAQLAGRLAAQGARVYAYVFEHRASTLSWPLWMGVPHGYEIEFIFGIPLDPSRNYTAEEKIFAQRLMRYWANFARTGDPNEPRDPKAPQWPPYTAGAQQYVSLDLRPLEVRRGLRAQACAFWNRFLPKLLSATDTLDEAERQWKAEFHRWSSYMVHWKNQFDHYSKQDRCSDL
UniProt P06276, 29-602 limits assumed: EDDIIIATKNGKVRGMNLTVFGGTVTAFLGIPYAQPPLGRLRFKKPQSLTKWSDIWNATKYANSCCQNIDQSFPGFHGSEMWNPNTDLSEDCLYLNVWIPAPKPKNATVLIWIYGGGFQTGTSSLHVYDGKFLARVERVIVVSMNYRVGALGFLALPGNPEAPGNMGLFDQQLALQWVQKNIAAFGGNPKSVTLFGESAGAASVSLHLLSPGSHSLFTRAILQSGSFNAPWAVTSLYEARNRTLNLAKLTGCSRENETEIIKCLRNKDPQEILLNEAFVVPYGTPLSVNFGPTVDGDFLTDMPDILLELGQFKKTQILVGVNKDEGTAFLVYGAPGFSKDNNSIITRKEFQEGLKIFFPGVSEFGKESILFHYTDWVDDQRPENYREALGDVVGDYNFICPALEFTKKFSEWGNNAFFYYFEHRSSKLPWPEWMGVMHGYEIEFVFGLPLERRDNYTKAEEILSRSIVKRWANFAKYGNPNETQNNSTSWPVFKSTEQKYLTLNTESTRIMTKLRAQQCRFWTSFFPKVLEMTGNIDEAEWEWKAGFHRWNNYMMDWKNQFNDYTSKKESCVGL

Tests used:
Acetylcholinesterase = Acetylcholinesterase (Homo sapiens, UniProt P22303); assay: Inhibition of human AChE assessed as acetylthiocholine hydrolysis preincubated for 10 mins followed by addition of substrate measured after 2 mins by spectrophotometric method
Cholinesterase = Cholinesterase (Homo sapiens, UniProt P06276); assay: Inhibition of human plasma BChE assessed as butyrylthiocholine hydrolysis preincubated for 10 mins followed by addition of substrate measured after 2 mins by spectrophotometric method

Compound `CCCCCCCC1OCc2c[n+](C)c(C)c(OC(=O)N(C)C)c2CO1` (configuration not stated) has an IC50 (Acetylcholinesterase) of 2.1 µM and an IC50 (Cholinesterase) of 8.1 µM.
